Ki data for twelve compounds are collected here from US8969352B2, “Substituted 2-azabicycles and their use as orexin receptor modulators” (Janssen Pharmaceutica NV, priority 2013, dated 2015).

Amino acid sequences for entries named in this document (tags omitted).
UniProt O43614, whole entry: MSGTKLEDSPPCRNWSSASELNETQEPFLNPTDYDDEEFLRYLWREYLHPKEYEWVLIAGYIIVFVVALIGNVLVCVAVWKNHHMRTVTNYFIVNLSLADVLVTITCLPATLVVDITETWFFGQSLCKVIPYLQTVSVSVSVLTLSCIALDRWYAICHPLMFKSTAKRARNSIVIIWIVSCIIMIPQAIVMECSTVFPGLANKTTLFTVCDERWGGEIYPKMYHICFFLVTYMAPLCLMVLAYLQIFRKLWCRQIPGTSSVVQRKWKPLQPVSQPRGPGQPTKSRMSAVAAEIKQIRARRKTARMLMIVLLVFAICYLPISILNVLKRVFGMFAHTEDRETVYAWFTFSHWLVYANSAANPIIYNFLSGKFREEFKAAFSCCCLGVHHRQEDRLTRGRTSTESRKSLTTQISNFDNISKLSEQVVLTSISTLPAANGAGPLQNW

Assay [1] has as its target human orexin 2 receptor (Homo sapiens (Human), UniProt O43614). In words: Human orexin 2 receptor radioligand binding. The note with it: HEK293 stably expressing human orexin 2 receptor; [3H]-EMPA competitive binding, apparent Ki; read-out: hOX2 Ki. As for the experimental part: Human Orexin 2 Receptor Radioligand Binding Studies
(§1) After centrifugation (2K×G, 5 min at 4° C.), the supernatant was aspirated and the pellets frozen and stored at −80° C. […] Each cell pellet from a 15 cm plate was resuspended in 10 mL, stored on ice, and homogenized for 45 sec just prior to addition to the reactions. Competition binding experiments in 96 well polypropylene plates were performed using [^3H]-EMPA (Moraveck Corporation, specific activity=29.6 Ci/mmol), diluted to a 5 nM concentration in PBS (2 nM final concentration). […] The final concentration of DMSO in the reactions is equal to or less than 0.1%. Total and nonspecific binding was determined in the absence and presence of 10 μM almorexant. The total volume of each reaction is 200 μL (20 μL of diluted compounds, 80 μL of [^3H]-EMPA diluted in PBS and 100 μL of the cell suspension). […] The plates were washed 3 times by aspirating 30 ml PBS through the plates. Plates were dried in 55° C. oven for 60 min, scintillation fluid was added, and the radioactivity was counted on a Topcount (Packard).

Assay [2] deals with human orexin 1 receptor (Homo sapiens, UniProt O43613). In words: Human orexin 1 receptor radioligand binding. The note with it: CHO cells stably expressing human orexin 1 receptor; competitive radioligand binding, apparent Ki; read-out: hOX1 Ki. As for the experimental part: (§2) Rat and Human Orexin 1 Receptor Radioligand Binding Studies
as §1, with “sec” for “sec just”, “reactions.” for “reactions. Competition binding experiments in 96 well polypropylene plates were performed using [^3H]-EMPA (Moraveck Corporation, specific activity=29.6 Ci/mmol), diluted to a 5 nM concentration in PBS (2 nM final concentration).”, “[^3H]-(1-(5-(2-fluoro-phenyl)-2-methyl-thiazol-4-yl)-1-((S)-2-(5-phenyl-(1,3,4)oxadiazol-2-ylmethyl)-pyrrolidin-1-yl)-methanone)” for “[^3H]-EMPA”

In assay [3] the target is rat orexin 1 receptor (Rattus norvegicus, UniProt P56718). In words: Rat orexin 1 receptor radioligand binding. The settings on record: HEK293 cells stably expressing rat orexin 1 receptor; competitive radioligand binding, apparent Ki; read-out: rOX1 Ki. On the procedure:
as §2
as §1, with “sec” for “sec just”, “reactions.” for “reactions. Competition binding experiments in 96 well polypropylene plates were performed using [^3H]-EMPA (Moraveck Corporation, specific activity=29.6 Ci/mmol), diluted to a 5 nM concentration in PBS (2 nM final concentration).”, “[^3H]-(1-(5-(2-fluoro-phenyl)-2-methyl-thiazol-4-yl)-1-((S)-2-(5-phenyl-(1,3,4)oxadiazol-2-ylmethyl)-pyrrolidin-1-yl)-methanone)” for “[^3H]-EMPA”

Turning to `Cc1cccc(C(=O)N2C[C@H]3C[C@@H](Oc4ccc(C(F)(F)F)cn4)[C@@H]2C3)c1-c1ncco1` [Example 32, (3-methyl-2-(oxazol-2-yl)phenyl)((1S,4R,6R)-6-((5-(trifluoromethyl)pyridin-2-yl)oxy)-2-azabicyclo[2.2.1]heptan-2-yl)methanone], in assay [1], the Ki was 143 nM.

For `O=C(c1cc(F)ccc1-n1nccn1)N1C[C@H]2C[C@@H](Oc3ccc(C(F)(F)F)cn3)[C@@H]1C2` [Example 43, (5-fluoro-2-(2H-1,2,3-triazol-2-yl)phenyl)((1S,4R,6R)-6-((5-(trifluoromethyl)pyridin-2-yl)oxy)-2-azabicyclo[2.2.1]heptan-2-yl)methanone], the Ki in assay [1] came to 557 nM.

On to `O=C(c1ccc(F)cc1-c1ncccn1)N1C[C@H]2C[C@@H](Oc3ccc(C(F)(F)F)cn3)[C@@H]1C2` [Example 26, (4-fluoro-2-(pyrimidin-2-yl)phenyl)((1S,4R,6R)-6-((5-(trifluoromethyl)pyridin-2-yl)oxy)-2-azabicyclo[2.2.1]heptan-2-yl)methanone], for which, in assay [2], the Ki worked out at 15 nM.

`O=C(c1cccc(F)c1-n1nccn1)N1C[C@H]2C[C@@H](Oc3ccc(C(F)(F)F)cn3)[C@@H]1C2` [Example 35, (3-fluoro-2-(2H-1,2,3-triazol-2-yl)phenyl)((1S,4R,6R)-6-((5-(trifluoromethyl)pyridin-2-yl)oxy)-2-azabicyclo[2.2.1]heptan-2-yl)methanone]: the Ki in assay [1] was determined as 542 nM.

In the case of `O=C(c1ccccc1-n1nccn1)N1CC2CC(Oc3cnc(C(F)(F)F)cn3)C1C2` (racemic) [Example 1, (R/S)-(2-(2H-1,2,3-triazol-2-yl)phenyl)(6-((5-(trifluoromethyl)pyrazin-2-yl)oxy)-2-azabicyclo[2.2.1]heptan-2-yl)methanone], in assay [1], the Ki was 4700 nM.

Take `O=C(c1ccccc1-n1nccn1)N1C[C@H]2C[C@@H](Nc3ccc(C(F)(F)F)cn3)[C@@H]1C2` [Example 53, (2-(2H-1,2,3-triazol-2-yl)phenyl)((1S,4S,6R)-6-((5-(trifluoromethyl)pyridin-2-yl)amino)-2-azabicyclo[2.2.1]heptan-2-yl)methanone]: the Ki in assay [1] stood at 165 nM.

As for `Cc1ccc(-n2nccn2)c(C(=O)N2CC3CC(Oc4ccc(C(F)(F)F)cn4)C2C3)n1` (single isomer, unassigned) [Example 23], the Ki in assay [1] was over 10000 nM.

With `CCOc1ncc2ccccc2c1C(=O)N1CC2CC(Oc3ccc(C(F)(F)F)cn3)C1C2` (racemic) [Example 8, (R/S)-(3-ethoxyisoquinolin-4-yl)(6-((5-(trifluoromethyl)pyridin-2-yl)oxy)-2-azabicyclo[2.2.1]heptan-2-yl)methanone], the Ki was determined as 15 nM in assay [2] and 16 nM in assay [3].

As for `O=C(c1ccc(F)cc1-c1ncccn1)N1CC2CC(Oc3ccc(C(F)(F)F)cn3)C1C2` (racemic) [Example 20, (R/S)-(4-fluoro-2-(pyrimidin-2-yl)phenyl)(-6-((5-(trifluoromethyl)pyridin-2-yl)oxy)-2-azabicyclo[2.2.1]heptan-2-yl)methanone], the Ki in assay [2] is 15 nM.

In the case of `O=C(c1cccc(F)c1-n1nccn1)N1CC2CC(Oc3ccc(C(F)(F)F)cn3)C1C2` (racemic) [Example 16, (R/S)-(3-fluoro-2-(2H-1,2,3-triazol-2-yl)phenyl)(6-((5-(trifluoromethyl)pyridin-2-yl)oxy)-2-azabicyclo[2.2.1]heptan-2-yl)methanone], the Ki in assay [1] was 1000 nM.

For the compound `O=C(c1c(F)cccc1-c1ncccn1)N1C[C@H]2C[C@@H](Oc3ccc(Br)cn3)[C@@H]1C2` [Example 47, ((1S,4R,6R)-6-((5-bromopyridin-2-yl)oxy)-2-azabicyclo[2.2.1]heptan-2-yl)(2-fluoro-6-(pyrimidin-2-yl)phenyl)methanone], the Ki in assay [1] turned out to be 503 nM.

As to `O=C(c1cc(F)ccc1-n1nccn1)N1CC2CC(Oc3ccc(C(F)(F)F)cn3)C1C2` (racemic) [Example 14, (R/S)-(5-fluoro-2-(2H-1,2,3-triazol-2-yl)phenyl)(6-((5-(trifluoromethyl)pyridin-2-yl)oxy)-2-azabicyclo[2.2.1]heptan-2-yl)methanone], in assay [1], the Ki turned out to be 855 nM.
